## Binding of CDR-mutated scFvs to a peptide of the spike HR2 region

All variants were tested on one target, the spike HR2 peptide PDVDLGDISGINAS (SARS-CoV-2).

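The parent was found by panning a naive human phage display library on the peptide. In library AAYL50, one, two or three CDR residues were substituted; doubles and triples were drawn at random. Affinity was read by AlphaSeq, a pooled yeast mating assay with surface-displayed partners. The frequency of each diploid, read from paired DNA barcodes, reflects how well the two displayed proteins bind. A regression on co-assayed BCL2-family reference pairs converts the normalised counts of each replicate to an apparent Kd. The assay was run in three technical replicates.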

Ab-14 is the parent antibody, in scFv form: VH, then the linker GGGGSGGGGSGGGGS, then VL. The heavy chain is unchanged in all variants.
VH: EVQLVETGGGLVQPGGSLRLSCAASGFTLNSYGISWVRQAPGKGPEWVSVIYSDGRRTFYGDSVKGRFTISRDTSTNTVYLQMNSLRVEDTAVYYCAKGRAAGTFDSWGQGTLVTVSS
VL: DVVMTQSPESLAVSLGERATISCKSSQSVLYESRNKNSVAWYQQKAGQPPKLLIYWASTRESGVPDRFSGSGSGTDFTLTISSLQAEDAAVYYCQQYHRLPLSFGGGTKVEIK

Each variant is given by its three light chain CDRs, as the data file delimits them; those of the parent are KSSQSVLYESRNKNSVA, WASTRES, QQYHRLPLS. These are single substitutions, in order of position. Scale: log10 of Kd in nM, estimated from mating counts; low values are strong binders. A mean of the replicates is given; it leaves out those without a signal. "not detected" means that the variant was in the library but no mating with the target was seen in any replicate; the authors take this as a sign of poor binding, and no number exists. Three control strains display no target. For library AAYL50, 18% of the pairings with them gave a signal, with a median of 4.19 and one signal in twenty below 2.99, so weak values seen in few replicates may be background. Parent in this assay: reference entry 0.65, copy in this library 1.68.

| CDR-L1 | CDR-L2 | CDR-L3 | log10 Kd (nM), mean | replicates with signal |
|---|---|---|---|---|
| KSSQSVLYESRNKNSVA | WALTRES | QQYHRLPLS | 2.35 | 3 of 3 |
| KSSQSVLYESRNKNSVA | WAITRES | QQYHRLPLS | 2.18 | 3 of 3 |
| KSSQSVLYESRNKNSVA | WAKTRES | QQYHRLPLS | 4.05 | 2 of 3 |
| KSSQSVLYESRNKNSVA | WARTRES | QQYHRLPLS | 2.18 | 3 of 3 |
| KSSQSVLYESRNKNSVA | WACTRES | QQYHRLPLS | 3.15 | 3 of 3 |
| KSSQSVLYESRNKNSVA | WAGTRES | QQYHRLPLS | 1.29 | 3 of 3 |
| KSSQSVLYESRNKNSVA | WAETRES | QQYHRLPLS | 1.03 | 3 of 3 |
| KSSQSVLYESRNKNSVA | WAMTRES | QQYHRLPLS | 1.59 | 3 of 3 |
| KSSQSVLYESRNKNSVA | WANTRES | QQYHRLPLS | 3.71 | 3 of 3 |
| KSSQSVLYESRNKNSVA | WAHTRES | QQYHRLPLS | 3.87 | 3 of 3 |
| KSSQSVLYESRNKNSVA | WAFTRES | QQYHRLPLS | not detected | 0 of 3 |
| KSSQSVLYESRNKNSVA | WAYTRES | QQYHRLPLS | 1.54 | 3 of 3 |
| KSSQSVLYESRNKNSVA | WAWTRES | QQYHRLPLS | 2.57 | 3 of 3 |
| KSSQSVLYESRNKNSVA | WAPTRES | QQYHRLPLS | not detected | 0 of 3 |
| KSSQSVLYESRNKNSVA | WAATRES | QQYHRLPLS | 1.41 | 3 of 3 |
| KSSQSVLYESRNKNSVA | WASYRES | QQYHRLPLS | 1.31 | 3 of 3 |
| KSSQSVLYESRNKNSVA | WASVRES | QQYHRLPLS | 1.03 | 3 of 3 |
| KSSQSVLYESRNKNSVA | WASQRES | QQYHRLPLS | 0.73 | 3 of 3 |
| KSSQSVLYESRNKNSVA | WASARES | QQYHRLPLS | not detected | 0 of 3 |
| KSSQSVLYESRNKNSVA | WASFRES | QQYHRLPLS | 1.16 | 3 of 3 |
| KSSQSVLYESRNKNSVA | WASSRES | QQYHRLPLS | 1.65 | 3 of 3 |
| KSSQSVLYESRNKNSVA | WASPRES | QQYHRLPLS | not detected | 0 of 3 |
| KSSQSVLYESRNKNSVA | WASKRES | QQYHRLPLS | not detected | 0 of 3 |
| KSSQSVLYESRNKNSVA | WASRRES | QQYHRLPLS | not detected | 0 of 3 |
| KSSQSVLYESRNKNSVA | WASMRES | QQYHRLPLS | 1.17 | 2 of 3 |
| KSSQSVLYESRNKNSVA | WASCRES | QQYHRLPLS | 1.13 | 3 of 3 |
| KSSQSVLYESRNKNSVA | WASHRES | QQYHRLPLS | 3.93 | 2 of 3 |
| KSSQSVLYESRNKNSVA | WASLRES | QQYHRLPLS | 0.63 | 3 of 3 |
| KSSQSVLYESRNKNSVA | WASERES | QQYHRLPLS | 4.81 | 1 of 3 |
| KSSQSVLYESRNKNSVA | WASIRES | QQYHRLPLS | 1.18 | 3 of 3 |
| KSSQSVLYESRNKNSVA | WASWRES | QQYHRLPLS | 1.93 | 3 of 3 |
| KSSQSVLYESRNKNSVA | WASDRES | QQYHRLPLS | 2.35 | 3 of 3 |
| KSSQSVLYESRNKNSVA | WASTKES | QQYHRLPLS | 1.30 | 3 of 3 |
| KSSQSVLYESRNKNSVA | WASTCES | QQYHRLPLS | 3.53 | 3 of 3 |
| KSSQSVLYESRNKNSVA | WASTIES | QQYHRLPLS | not detected | 0 of 3 |
| KSSQSVLYESRNKNSVA | WASTFES | QQYHRLPLS | 4.48 | 1 of 3 |
| KSSQSVLYESRNKNSVA | WASTYES | QQYHRLPLS | 4.70 | 2 of 3 |
| KSSQSVLYESRNKNSVA | WASTPES | QQYHRLPLS | 1.87 | 3 of 3 |
| KSSQSVLYESRNKNSVA | WASTTES | QQYHRLPLS | 2.12 | 3 of 3 |
| KSSQSVLYESRNKNSVA | WASTDES | QQYHRLPLS | not detected | 0 of 3 |
| KSSQSVLYESRNKNSVA | WASTQES | QQYHRLPLS | 3.49 | 3 of 3 |
| KSSQSVLYESRNKNSVA | WASTNES | QQYHRLPLS | 5.06 | 3 of 3 |
| KSSQSVLYESRNKNSVA | WASTHES | QQYHRLPLS | not detected | 0 of 3 |
| KSSQSVLYESRNKNSVA | WASTGES | QQYHRLPLS | 1.48 | 3 of 3 |
| KSSQSVLYESRNKNSVA | WASTAES | QQYHRLPLS | 2.75 | 2 of 3 |
| KSSQSVLYESRNKNSVA | WASTVES | QQYHRLPLS | not detected | 0 of 3 |
| KSSQSVLYESRNKNSVA | WASTMES | QQYHRLPLS | 2.04 | 2 of 3 |
| KSSQSVLYESRNKNSVA | WASTLES | QQYHRLPLS | 3.75 | 3 of 3 |
| KSSQSVLYESRNKNSVA | WASTEES | QQYHRLPLS | 3.45 | 1 of 3 |
| KSSQSVLYESRNKNSVA | WASTRKS | QQYHRLPLS | 2.96 | 1 of 3 |
| KSSQSVLYESRNKNSVA | WASTRSS | QQYHRLPLS | 1.33 | 3 of 3 |
| KSSQSVLYESRNKNSVA | WASTRMS | QQYHRLPLS | 0.88 | 3 of 3 |
| KSSQSVLYESRNKNSVA | WASTRHS | QQYHRLPLS | 1.21 | 3 of 3 |
| KSSQSVLYESRNKNSVA | WASTRFS | QQYHRLPLS | 1.53 | 3 of 3 |
| KSSQSVLYESRNKNSVA | WASTRCS | QQYHRLPLS | not detected | 0 of 3 |
| KSSQSVLYESRNKNSVA | WASTRIS | QQYHRLPLS | 1.25 | 3 of 3 |
| KSSQSVLYESRNKNSVA | WASTRLS | QQYHRLPLS | 0.97 | 3 of 3 |
| KSSQSVLYESRNKNSVA | WASTRAS | QQYHRLPLS | 0.97 | 3 of 3 |
| KSSQSVLYESRNKNSVA | WASTRTS | QQYHRLPLS | 1.09 | 3 of 3 |

The 10 strongest on average among those seen in every replicate, once more:

{"CDR-L1": "KSSQSVLYESRNKNSVA", "CDR-L2": "WASLRES", "CDR-L3": "QQYHRLPLS", "log10 Kd (nM), mean": "0.63", "replicates with signal": "3 of 3"}
{"CDR-L1": "KSSQSVLYESRNKNSVA", "CDR-L2": "WASQRES", "CDR-L3": "QQYHRLPLS", "log10 Kd (nM), mean": "0.73", "replicates with signal": "3 of 3"}
{"CDR-L1": "KSSQSVLYESRNKNSVA", "CDR-L2": "WASTRMS", "CDR-L3": "QQYHRLPLS", "log10 Kd (nM), mean": "0.88", "replicates with signal": "3 of 3"}
{"CDR-L1": "KSSQSVLYESRNKNSVA", "CDR-L2": "WASTRLS", "CDR-L3": "QQYHRLPLS", "log10 Kd (nM), mean": "0.97", "replicates with signal": "3 of 3"}
{"CDR-L1": "KSSQSVLYESRNKNSVA", "CDR-L2": "WASTRAS", "CDR-L3": "QQYHRLPLS", "log10 Kd (nM), mean": "0.97", "replicates with signal": "3 of 3"}
{"CDR-L1": "KSSQSVLYESRNKNSVA", "CDR-L2": "WASVRES", "CDR-L3": "QQYHRLPLS", "log10 Kd (nM), mean": "1.03", "replicates with signal": "3 of 3"}
{"CDR-L1": "KSSQSVLYESRNKNSVA", "CDR-L2": "WAETRES", "CDR-L3": "QQYHRLPLS", "log10 Kd (nM), mean": "1.03", "replicates with signal": "3 of 3"}
{"CDR-L1": "KSSQSVLYESRNKNSVA", "CDR-L2": "WASTRTS", "CDR-L3": "QQYHRLPLS", "log10 Kd (nM), mean": "1.09", "replicates with signal": "3 of 3"}
{"CDR-L1": "KSSQSVLYESRNKNSVA", "CDR-L2": "WASCRES", "CDR-L3": "QQYHRLPLS", "log10 Kd (nM), mean": "1.13", "replicates with signal": "3 of 3"}
{"CDR-L1": "KSSQSVLYESRNKNSVA", "CDR-L2": "WASFRES", "CDR-L3": "QQYHRLPLS", "log10 Kd (nM), mean": "1.16", "replicates with signal": "3 of 3"}

Source: Engelhart et al. 2022 (doi:10.1038/s41597-022-01779-4), MIT Lincoln Laboratory and A-Alpha Bio; data file from the FLAb repository.